Data reported in PubChem BioAssay (Tox21).
Values joined by “and” are separate entries in the source; they are usually repeats but may differ in a detail not shown here. Equal values may be shown once. The entries are a selection whose mix differs from that of the whole data set. Records with an inconclusive call do not appear. Active and inactive are the calls of the source. The call rests on the fitted dose curve.

Chains of the proteins cited; added tags and fusions are not shown.
UniProt P11229, whole entry: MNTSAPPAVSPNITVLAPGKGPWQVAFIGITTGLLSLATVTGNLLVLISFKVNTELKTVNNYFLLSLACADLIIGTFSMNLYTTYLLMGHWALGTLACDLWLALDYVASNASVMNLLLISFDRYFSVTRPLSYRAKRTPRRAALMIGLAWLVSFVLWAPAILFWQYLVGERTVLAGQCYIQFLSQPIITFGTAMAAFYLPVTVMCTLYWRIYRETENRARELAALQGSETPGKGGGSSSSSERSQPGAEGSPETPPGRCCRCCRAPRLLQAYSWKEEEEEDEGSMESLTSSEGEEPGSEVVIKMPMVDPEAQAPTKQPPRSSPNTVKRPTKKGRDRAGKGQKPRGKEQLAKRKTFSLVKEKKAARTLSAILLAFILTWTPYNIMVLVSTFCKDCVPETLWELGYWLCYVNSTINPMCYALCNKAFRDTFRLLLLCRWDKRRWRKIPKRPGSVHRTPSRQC

molecular target: Muscarinic acetylcholine receptor M1 (Homo sapiens) (UniProt P11229); test: Cholinergic receptor muscarinic 1 (CHRM1) small molecule antagonists, cell-based qHTS assay (AID 1963588); conditions: CHRM1-CHO antagonist mode, calcium flux fluorescence; at 61.5 µM (top of the series) unless noted; further: nearly all actives have a fitted effect of over 40% in size
Text: National Center for Advancing Translational Sciences [NCATS]
Division of Preclinical Innovation [DPI]
U.S. Environmental Protection Agency [EPA]
National Institutes of Environmental Health Sciences [NIEHS]
National Toxicology Program [NTP]
U.S. Food and Drug Administration [FDA]
The CHRM1 is a muscarinic receptor. This receptor plays a crucial role in learning and memory processes and has long been identified as a promising therapeutic target for the improvement of cognitive decline in Alzheimer's disease (AD). The CHRM1-CHO cell line stably expressing human muscarinic acetylcholine receptor M1 (CHRM1) can be used for screening agonists and antagonists of interactions between CHRM1 and its ligands. The CHRM1-CHO Calcium Flux Assay is a homogeneous fluorescence-based assay for detecting the intracellular calcium level using FDSS kinetic plate reader system.
Tox21 Assay Protocol Summary:
CHRM1-CHO cells were dispensed at 1000 cells/3uL/well in 1536-well black-clear bottom plates using a Multidrop Dispenser. After the assay plates were incubated at a 37 C/5% CO2 incubator for 18 h, 3 uL of Dye Loading Buffer was transferred to the assay plate by a Flying Reagent Dispenser. The assay plates were incubated at 37 C for 1h. For antagonist mode, 23 nL of compounds dissolved in DMSO, positive controls or DMSO only was transferred to the assay plate by a pin tool. After 5 min incubation at room temperature, 1.5 uL of acetylcholine at 50nM was added to each well. The fluorescence intensity in the plates was measured using FDSS 7000EX kinetic plate reader for 3 min at 1 sec intervals. Each test compound was measured at 15 concentrations in three independent runs.
On the % scale 0 is the no-effect control and ±100 the full control effect.

Row | Structure (SMILES) | activity, negative = inhibition
1 | N#CBr | inactive: 15.6%
2 | Cc1ccc([N+](=O)[O-])c([N+](=O)[O-])c1 | inactive: -7.28%
3 | O=[N+]([O-])OCC(CO[N+](=O)[O-])(CO[N+](=O)[O-])CO[N+](=O)[O-] | inactive: 8.42%
4 | N=C(N)N[N+](=O)[O-] | inactive: 0.292%
5 | CP(=O)(O)OCCC[Si](O)(O)O | inactive: 32.5%
6 | COP(C)(=O)OC | inactive: 21.1% and inactive: 69.1%
7 | Nc1cc([N+](=O)[O-])cc([N+](=O)[O-])c1O | inactive: -17.3%
8 | CCOP(=O)(CC)OCC | inactive: -19.8%
9 | Cc1cccc([N+](=O)[O-])c1[N+](=O)[O-] | inactive: 17.3% [at 28.3 µM]
10 | O=[N+]([O-])c1cccc([N+](=O)[O-])c1 | inactive: 35.4%
11 | [NH4+].[O-][Cl+3]([O-])([O-])[O-] | inactive: -6.24% and inactive: 74%
12 | CC(C)N(CCO)C(C)C | inactive: -11.7%
13 | Cc1ccc([N+](=O)[O-])cc1[N+](=O)[O-] | inactive: 7.16%
14 | CC(C)OP(C)(=O)OC(C)C | inactive: 7.91% and inactive: 23.2%
15 | C/C1=C2N=C(/C=C3N=C(/C(C)=C4\[N-][C@@](C)([C@@H]5N=C1[C@](C)(CCC(=O)NC[C@@H](C)OP(=O)([O-])O[C@H]1[C@@H](O)[C@@H](n6cnc7cc(C)c(C)cc76)O[C@@H]1CO)[C@H]5CC(N)=O)[C@@](C)(CC(N)=O)[C@@H]4CCC(N)=O)[C@@](C)(CC(N)=O)[C@@H]\3CCC(N)=O)C(C)(C)[C@@H]/2CCC(N)=O.[C-]#N.[Co+3] | inactive: 30.2% [at 28.3 µM]
16 | CCN(CC)CCCl | inactive: 12%
17 | CN(C)CCCl | inactive: -6.02%
18 | CCOP(=O)(CC)Oc1ccc([N+](=O)[O-])cc1 (stereo unspecified) | inactive: 13.1% [at 28.3 µM]
19 | COc1ccc([N+](=O)[O-])cc1[N+](=O)[O-] | inactive: 11.2%
20 | O=[N+]([O-])[O-].[NH4+] | inactive: -9.73% and inactive: 3.94%
21 | Cc1c([N+](=O)[O-])cccc1[N+](=O)[O-] | inactive: 8.6% and inactive: -1.54%
